Tested on: HCT116 cells
Conditions: 0.075 to 30 µM, 48 or 72 hours

SMILES: CC(C)C[C@H](CP(=O)(O)[C@@H](N)CCc1ccccc1)C(=O)N[C@@H](Cc1c[nH]c2ccccc12)C(N)=O [DG013A 1, ((S)-2-(((S)-1-amino-3-(1H-indol-3-yl)-1-oxopropan-2-yl)carbamoyl)-4-methylpentyl)((R)-1-amino-3-phenylpropyl)phosphinic acid, reference compound]
- antiproliferative activity in HCT116 cells: Weak antiproliferative activity
